{"sequences": {"note": "Amino acid sequences for entries named in this document (tags omitted). A change or cut given only in a name is not applied to a line headed by its entry.", "UniProt P11802": "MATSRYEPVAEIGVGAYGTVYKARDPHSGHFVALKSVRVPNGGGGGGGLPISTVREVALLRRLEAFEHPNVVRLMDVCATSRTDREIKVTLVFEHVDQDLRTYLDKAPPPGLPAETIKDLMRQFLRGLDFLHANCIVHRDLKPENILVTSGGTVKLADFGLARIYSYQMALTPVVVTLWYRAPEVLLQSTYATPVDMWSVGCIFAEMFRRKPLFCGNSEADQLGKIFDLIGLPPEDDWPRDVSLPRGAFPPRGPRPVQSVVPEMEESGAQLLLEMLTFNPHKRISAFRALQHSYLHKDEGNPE"}, "source": "patent US8623885B2", "about": "“Fused tricyclic dual inhibitors of CDK 4/6 and FLT3” (Amgen Inc., priority 2011, dated 2014)", "molecular_target": "CDK4/Cyclin D1 (Homo sapiens (Human), UniProt P11802)", "experiment": "CDK4 filtration kinase assay", "type": "biochemical", "settings": "CDK4/Cyclin D1, Rb fragment substrate, [33P]-ATP filtration assay", "method": "The CDK4 and CDK1 inhibitory activity of the CDK4/6-FLT3 inhibitors was determined with a filtration kinase assay. The compounds, kinase and substrate diluted in the kinase buffer (20 mM Tris, pH7.4, 50 mM NaCl, 1 mM DTT, 0.1% BSA) were sequentially added to a 96-well Multiscreen HTS filtration plate (Millipore). The final 100 μL reaction mixture in each well contained 0.3 μg of CDK4/Cyclin D1 or CDK1/Cyclin B (Cell Signaling Technology), 1 μg of Rb fragment (aa773-928, Millipore) for the CDK4 assay or 5 μg of histone H1 for the CDK1 assay and 1 μCi of [^33P]-ATP. The mixture was incubated at room temperature for 1 hour. The proteins in the reaction were then precipitated and washed with cold TCA solution using an aspiration/filtration vacuum system. The plates were dried at room temperature, and the retained radioactivity was measured by scintillation counting.\nIC50 values of the compounds in the above assays were determined by non-linear regression analysis using Prism (GraphPad Software).", "data": [{"smiles": "C[C@H]1CC[C@H](n2c3cnccc3c3cnc(Nc4ccc5c(n4)CCN(CCC(F)(F)F)C5)nc32)CC1", "note": "[Example 7, 9-((1r,4r)-4-Methylcyclohexyl)-N-(6-(3,3,3-trifluoropropyl)-5,6,7,8-tetrahydro-1,6-naphthyridin-2-yl)-9H-pyrido[4′,3′:4,5]pyrrolo[2,3-d]pyrimidin-2-amine]", "values": [{"measurement": "IC50", "value": 52.4, "unit": "nM"}]}]}
